The values below come from US6673827B1, “Methods of treating fungal infections with inhibitors of NAD synthetase enzyme” (priority 1999, dated 2004).

Amino acid sequences for entries named in this document (tags omitted).
UniProt P08164, whole entry: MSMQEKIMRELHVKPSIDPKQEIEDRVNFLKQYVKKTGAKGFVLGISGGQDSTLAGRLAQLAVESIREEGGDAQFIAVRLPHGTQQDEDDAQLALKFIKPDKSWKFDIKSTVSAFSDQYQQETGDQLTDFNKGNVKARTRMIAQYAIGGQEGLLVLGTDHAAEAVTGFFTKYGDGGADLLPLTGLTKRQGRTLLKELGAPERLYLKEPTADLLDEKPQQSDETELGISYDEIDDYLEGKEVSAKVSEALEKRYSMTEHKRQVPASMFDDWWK

For the assay, the target named is NAD synthetase (recombinant protein from B. subtilis; purified) (Bacillus subtilis, UniProt P08164). The assay is described as follows: NAD synthetase enzyme inhibition assay (coupled enzymatic assay, HTS). To be noted: table of structures used in the yeast assay (Example 4); tested form: iodide. It counts as biochemical.

For the compound `C[n+]1c2c(cc3ccccc31)C(=O)OCCCCCCCCn1cc-2c2cc(OCc3ccccc3)ccc21`, the “IC50 (μg/mL) for Inhibit. of NAD Synthetase” value turned out to be 66 µg/mL.
